In US9856499B2, “Long chain organic acid bioproduction” (dated 2018):
Read-outs that look alike come from different tables or passages of the source. This is a selection: effects in other tests are not listed, and their absence says nothing.

Legend:
C. acetobutylicum [1] = assay: TNT assay in C. acetobutylicum culture (TNT degradation rate)
Experimental: TNT concentration in the culture medium was followed by a spectrometric protocol modified from Jenkins et al (Jenkins and Walsh 1992; Watrous et al. 2003). Freshly made sodium sulfite solution (0.2 g/mL) in 50 mM pH 8.0 Tris-HCl buffer reacts with TNT solution to form a colored complex with maximum absorption at A414 that remains stable for hours under assay conditions. A414 readings increase linearly up to a 500 μM TNT concentration.
Single C. acetobutylicum colonies from freshly grown plates were inoculated into buffered CGM medium with appropriate antibiotics and incubated overnight as seed cultures. An appropriate amount from seed culture was used for the subculture to yield a starting A600 of 0.1. The culture was incubated at 37° C. and growth (A600) measured periodically. TNT degradation rate was assayed during early-exponential phase (A600 0.3), mid-exponential phase (A600 1.0) and stationary phase (24 hour culture with A600 varied) by diluting the culture at different times into fresh medium containing 400 μM TNT. […]
In order to determine the effect of culture dilution on TNT degradation and confirm the linear range of the measurements, five C. acetobutylicum cultures were prepared to ultimately yield 10×, 20×, 30×, 40×, and 50× dilutions respectively. […] Once the three time samples were collected and centrifuged at 13000 rpm for 10 minutes, the A414 absorbance of each supernatant was measured, and the dilution factors were considered to calculate the specific TNT degradation rates. Since the time of the initial rate measurement was short after the dilution compared to a typical lag phase recovery of growth rate the measured rates are considered indicative of the metabolism of the cell at the time points used.
A simplified Jenkins TNT assay protocol was adapted in our experiments. […] The measured TNT concentration in the culture declined with time during the assay, and the rate of decrease had diminished considerably after 1 hr.
Therefore the maximal specific TNT degradation rate as measured by this method was used in the figures and tables. […]

C. acetobutylicum 824 = assay: Metabolites of cultures before and after TNT addition (gas chromatography), strain 824
Experimental: (§1) Cell growth was monitored by A600 with a Beckman DU-800 spectrophotometer. On fermentor, cell growth was monitored by a cell density sensor. The concentrations of butanol, acetone, ethanol, butyrate, and acetate were determined using gas chromatography with a Hewlett-Packard 5890 Series II instrument (Hewlett-Packard Company, Palo Alto, Calif.) as described previously (Scotcher and Bennett 2005; Zhao et al. 2003; Zhao et al. 2005). Glucose was measured by HPLC as described (Wang et al. 2011).
(§2) We measured the acid metabolites formed during the time after TNT addition. A culture of C. acetobutylicum grown under the conditions where the TNT degradation rate was analyzed was processed and subjected to gas chromatography to determine the metabolites present in the pre-TNT added culture and in the culture 1 hour after the TNT addition, a time when the starting TNT had been depleted. The culture continued to grow during this time and the metabolism of glucose continued during the 1 hour period and seemed unchanged in rate as judged by the total production of acids during this time.

C. acetobutylicum M5 = assay: Metabolites of cultures before and after TNT addition (gas chromatography), strain M5
Experimental: as §1, §2

[2] = test system: C. acetobutylicum ATCC 824; assay: Hydrogen production / H2/CO2 ratio and reductant distribution on TNT addition
Experimental: TNT can act as an alternative electron acceptor for the hydrogenase enzyme, so the effect of TNT addition on H2 production in cultures during exponential growth was determined by measuring the H2/CO2 ratio.
The detailed redox calculations shown in Table 3 analyzes the redistribution of reductant from production of hydrogen to more production of butyrate during the time when TNT was present and being reduced. The level of TNT present (400 μM) would not consume much of the reductant available directly in this experiment, and the amount would be expected to be 1 mM or less based on the early reduction steps of TNT under these conditions as analyzed previously (Ahmad and Hughes 2000; Khan et al. 1997; Padda et al. 2000).
Calculations of the observed reductant consumed in the formation of acids either before or during TNT transformation and the resulting reducing equivalents available for formation of hydrogen give values of 1.30 for the hydrogen/CO2 ratio before TNT addition and 1.05-1.12 during TNT degradation. These values are very close to the values measured experimentally (not shown), before TNT addition of 1.36 and during TNT degradation of 1.18.
If the data are presented in a form where the fraction of total reductant formed from glucose metabolism, i.e. reduced ferredoxin and NADH, that goes to either formation of hydrogen or butyrate is calculated, we can analyze the proportion of reductant that is consumed in butyrate formation in the culture during the one hour period before TNT addition and it is 35% of the total reductant. If the same calculation is done on the culture during the one hour period of TNT degradation a proportion of 44-47% of total reductant that goes into formation of butyrate is determined.

C. acetobutylicum [3] = assay: Redox potential of the culture on TNT addition; conditions: addition to cultures in exponential growth
Text: We found TNT addition alters the redox potential of the culture. […] This initial spike was followed by a persistent increase in the redox potential of the cultures receiving TNT when compared to the redox level of the control culture.

C. acetobutylicum [4] = conditions: Exp. 6-7, taken from outside literature, cultures A=1.0; cited from earlier work
[5] = 824, during TNT (formed over the period)
[6] = M5, during TNT (formed over the period)

For Cc1c([N+](=O)[O-])cc([N+](=O)[O-])cc1[N+](=O)[O-], the TNT degradation rate (C. acetobutylicum [1]; ATCC824, series of five culture experiments) was 15.2 mM/h/A600, the “TNT deg. Rate” value (C. acetobutylicum [1]; Exp. 1-5, cultures A=0.3) was 15.2 mM/Hour/A600 and the “initial TNT degradation rate” value (C. acetobutylicum [1]; all strains tested, early exponential phase (A600 0.3), 400 μM TNT) was 10,000-12,000 μM/Hour/A600. For the same compound, the Acetate (C. acetobutylicum 824; 824, 1 hr post TNT) was 5.39 mM, the Acetone (C. acetobutylicum 824; 824, 1 hr post TNT) was 0.03 mM and the Butanol (C. acetobutylicum 824; 824, 1 hr post TNT) was 0 mM. For the same compound, the Butyrate (C. acetobutylicum 824; 824, 1 hr post TNT) was 10.11 mM, the Ethanol (C. acetobutylicum 824; 824, 1 hr post TNT) was 0.29 mM and the Acetate (C. acetobutylicum 824; [5]) was 1.63 mM. It also gave an Acetone (C. acetobutylicum 824; [5]) of 0 mM, a Butanol (C. acetobutylicum 824; [5]) of 0 mM and a Butyrate (C. acetobutylicum 824; [5]) of 5.8 mM. The Ethanol (C. acetobutylicum 824; [5]) was 0.06 mM, the “metabolic pattern after TNT addition (butyrate, acetate)” value (C. acetobutylicum 824; variety of Clostridia cultures) was “more butyrate and less acetate” and the Acetate (C. acetobutylicum M5; M5, 1 hr post TNT) was 4.53 mM. The Acetone (C. acetobutylicum M5; M5, 1 hr post TNT) was 0 mM, the Butanol (C. acetobutylicum M5; M5, 1 hr post TNT) was 0 mM and the Butyrate (C. acetobutylicum M5; M5, 1 hr post TNT) was 11.37 mM. The Ethanol (C. acetobutylicum M5; M5, 1 hr post TNT) was 0 mM, the Acetate (C. acetobutylicum M5; [6]) was 0.82 mM and the Acetone (C. acetobutylicum M5; [6]) was 0 mM. For the same compound, the Butanol (C. acetobutylicum M5; [6]) was 0 mM, the Butyrate (C. acetobutylicum M5; [6]) was 7.05 mM and the Ethanol (C. acetobutylicum M5; [6]) was 0 mM. For the same compound, the “effect on hydrogen production” value ([2]; cultures during exponential growth) was “decrease of hydrogen production”, the “hydrogen/CO2 ratio (measured experimentally)” value ([2]; during TNT degradation) was 1.18 and the “hydrogen/CO2 ratio (calculated from reductant consumed in acids)” value ([2]; during TNT degradation, 400 μM TNT) was 1.05-1.12. The “proportion of total reductant that goes into formation of butyrate” value ([2]; one hour period of TNT degradation) was 44-47%, the “effect on redox potential of the culture” value (C. acetobutylicum [3]) was “dose dependent spike in the redox potential” and the “TNT deg. Rate” value (C. acetobutylicum [4]) was 2.0 mM/Hour/A600.
